Earlier results, collected in patent US20140107050A1, “INCREASING BIOAVAILABILITY OF N-COUMAROYLDOPAMINE THROUGH CO-ADMINISTRATION WITH A CATECHOL-O-MEHTYLTRANSFERASE (COMT) INHIBITOR” (Redefine Nutrition, LLC, priority 2012, published 2014).

Target: T1, catechol-o-methyltransferase (COMT) (Homo sapiens, UniProt P21964)
T1 sequence (P21964 1-271): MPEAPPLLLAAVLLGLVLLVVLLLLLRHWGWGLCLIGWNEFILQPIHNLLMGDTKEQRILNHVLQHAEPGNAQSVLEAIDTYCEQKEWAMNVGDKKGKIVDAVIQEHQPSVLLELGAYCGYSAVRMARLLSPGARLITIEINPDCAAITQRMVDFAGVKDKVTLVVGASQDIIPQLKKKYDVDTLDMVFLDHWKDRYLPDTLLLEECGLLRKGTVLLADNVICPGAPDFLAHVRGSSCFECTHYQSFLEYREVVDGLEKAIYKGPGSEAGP
Details: values taken from cited literature; read-out: half maximal inhibitory concentration (IC50) for COMT inhibition

O=C(O[C@@H]1Cc2c(O)cc(O)cc2O[C@@H]1c1cc(O)c(O)c(O)c1)c1cc(O)c(O)c(O)c1 [Epigallocatechin gallate (EGCG), Epigallocatechin gallate]
IC50: ~200 nM
